Experimental data as given in EP2388012A1 (Roehampton University, priority 2010, dated 2011).

Target: Kissorphin-6 (human)

Row | Substance | Kd [nM]
1 | Aß 1-40 (peptide; modification not given) | 0.47
2 | Aß 1-42 (peptide; modification not given) | 0.62
